Source: patent EP4825842A1, “DIVALENT BET DECOMPOSITION AGENT AND TARGETING MOLECULE-DRUG COMPLEX” (dated 2026)

Assays:
SU-DHL-4 cells [1] = experiment: Test Example 4: in vivo drug efficacy evaluation of compound and ADC (SU-DHL-4 subcutaneous transplant); conditions: SCID mice with SU-DHL-4 tumor; 1 mg/kg body weight to the tail vein on day 1 and day 8; Figure 1
Description: SU-DHL-4 cells suspended in phosphate-buffered saline (PBS) containing 50 vol% Matrigel (Corning Inc.) were ventrally subcutaneously transplanted at 1 × 10^7 cells/0.1 mL/head to 5-week-old male SCID mice. Individuals having a tumor volume of 140 mm^3 or more were selected and grouped on 15 days after transplantation.
The day of grouping was defined as day 0, and diluted compound 1 was administered at 1 mg/kg body weight to the tail vein on day 1 and day 8. Diluted ADC-1 was administered at 3 mg/kg body weight to the tail vein on day 1. PBS containing 0.05 mg/mL polysorbate 80 was administered to a control group. Compound 1 was diluted with 4.29% Tween 80 (final proportions of DMSO and Tween 80: 30% and 3%, respectively). ADC-1 was diluted with PBS containing 0.05 mg/mL polysorbate 80. The tumor volumes and body weights of the mice were measured twice a week.

SU-DHL-4 cells [2] = experiment: Test Example 1: in vitro cell survival inhibitory effect of compound using SU-DHL-4 cell line; conditions: read-out: SU-DHL-4 IC50; 50% rate of inhibition of cell survival; 72 hours; Cell Counting Kit-8
Description: SU-DHL-4 cells (Code No. ACC 495, Deutsche Sammlung von Mikroorga nismen und Zellkulturen GmbH; DSMZ) were cultured in RPMI1640 medium (Code No. 11875-093, Thermo Fisher Scientific Inc.) supplemented with heat-inactivated fetal bovine serum (FBS: Code No. 10099-148, Thermo Fisher Scientific Inc.) in an amount that attained a final concentration of 10 vol% and a penicillin/streptomycin solution (PS: Code No. 15140-122, Thermo Fisher Scientific Inc.) in an amount that attained a final concentration of 1 vol% at 37°C using a CO2 incubator (95% air, 5% CO2). The cells were passaged at intervals of twice per week so as to maintain a cell density of 1 × 10 ^6 cells/mL or less in a volume of 20 to 40 mL.
The cultured SU-DHL-4 cells were seeded at 2000 cells/well to a transparent 384-well plate (Code No. 781182, Greiner bio-one). The cells thus seeded were precultured at 37°C for 18 to 25 hours in a CO2 incubator. Subsequently, a 1, 0.1, or 0.01 mmol/L solution of a test compound in DMSO was prepared, and nine serial dilutions were prepared at a dilution factor of √10 so as to attain 200 times the final concentration using the RPMI1640 medium containing FBS and PS, and added in a volume of 1/200 to each well. The final concentration of DMSO was set to 0.1 vol% for this preparation. The cells thus supplemented with the test compound were cultured at 37°C for 72 hours in a CO2 incubator. Subsequently, 0.020 mL of a solution of Cell Counting Kit-8 (Code No. CK04, Dojindo Laboratories) diluted 2-fold or 4-fold with phosphate-buffered saline (PBS) was added to each well. Color reaction was performed at 37°C for 2 to 3 hours in a CO2 incubator, followed by absorbance measurement at a wavelength of 450 nm using SpectraMax 340PC (Molecular Devices, LLC).

HIP-009 cells = experiment: Test Example 2: in vitro cell survival inhibitory effect of compound using nerve cell (HIP-009 cell); conditions: for Nerve selectivity: calculated from HIP-009 IC50 and SU-DHL-4 IC50; for Degree of improvement (vs. comparative compound): neural selectivity of each compound / neural selectivity of the comparative compound; for IC50: read-out: HIP-009 IC50, 50% rate of inhibition of cell survival, differentiated nerve cells, 7 days, total area occupied by the cells
Description: HIP-009 cells (Code No. 23002-009, Hippocampal Neural Stem Cells, Cosmo Bio Co., Ltd.) were cultured in Neural Stem Cell Growth Media (Code No. 21001-250, Cosmo Bio Co., Ltd.) at 37°C for 2 to 4 weeks using a CO2 incubator (95% air, 5% CO2) until confluency with half-volume media exchanges once or twice per week, then allowed to differentiate in Neuro Transition Media (Code No. 21003-250, Cosmo Bio Co., Ltd.), and seeded at 5000 to 10000 cells/0.04 mL/well to a 384-well plate (Code No. 781091, Greiner bio-one) using Neural Differentiation media (Code No. 210040250, Cosmo Bio Co., Ltd.). Neurites were elongated with half-volume media exchanges once or twice per week. Each medium was supplemented with supplements as described in the instruction and used after being allowed to pass through a 0.22 µm filter. The cells were used in evaluation 3 weeks or later after seeding to the 384-well plate by confirming the elongated neurites.
In order to detach the cells, Trypsin (Code No. 41004-100, Cosmo Bio Co., Ltd.) was added thereto, and the mixture was incubated at 37°C for 3 to 10 minutes using a CO2 incubator (95% air, 5% CO2). Cell detachment reaction was stopped by the addition of Trypsin Inhibitor (Code No. 41005-100, Cosmo Bio Co., Ltd.) in an equal amount.
The 384-well plate was subjected to the following operation before cell seeding. A poly(ethylenimine) solution (Code No. 03880-100ML, Sigma-Aldrich Co., LLC) was diluted with 1 × Borate Buffer (dilution of Pierce 20 × Borate Buffer (Code No. 28341, Thermo Fisher Scientific Inc.)) to prepare a 0.07% poly(ethylenimine) solution, 0.02 mL of which was added to each well and incubated at 37°C for 1 hour. Then, the plate was washed twice with 0.1 mL of PBS and once with 0.1 mL of Otsuka distilled water and left standing overnight for drying. 0.02 mL of Laminin from Engelbreth-Holm-Swarm murine sarcoma basement membrane (Code No. L2020-1MG, Sigma-Aldrich Co., LLC) diluted into 0.0033 mg/mL with PBS was added to each well and incubated at 37°C for 1 hour. Laminin was sucked out, then 0.1 mL of Otsuka distilled water was added to the plate until just before seeding, and the plate was left standing.
The cells of day 0 were photographed using Cell3iMager duos (SCREEN Holdings Co., Ltd.) before addition of a test compound, and the total area occupied by the cells was calculated. Nine serial dilutions of the test compound (10000 mmol/L solution in DMSO) were prepared at a dilution factor of √10 so as to attain 5 times the final concentration using the Neural Differentiation Media, and added in a volume of 1/5 to each well. The final concentration of DMSO was set to 0.1 vol% for this preparation. The cells thus supplemented with the test compound were cultured at 37°C for 7 days in a CO2 incubator (95% air, 5% CO2). The cells of day 7 were photographed using Cell3iMager duos, and the total area occupied by the cells was calculated. […] Rate of inhibition of cell survival(%) = 100−A/B × 100 [formula] • A: Total area of the cells of day 7 • B: Total area of the cells of day 0
The results were as shown in the column "HIP-009 IC50 (nmol/L)" in Table 33 below. The selectivity of each compound for nerve cells was calculated according to the following formula using the results thus obtained and the results of Test Example 1. [formula]
Degree of improvement (vs. the comparative compound) = Neural selectivity of each compound / Neural selectivity of the comparative compound

In the case of `CCC(=O)N1c2ccccc2[C@H](Nc2ccc(NC(=O)CNC(=O)Nc3ccc(OCCN4CCN(C)C(=O)[C@H]4C)cc3)cc2)C[C@@H]1C`, the antitumor activity (SU-DHL-4 cells [1]) is reported as “strong antitumor activity”, the IC50 (SU-DHL-4 cells [2]) is reported as 0.061 nM and the Nerve selectivity (HIP-009 cells) is reported as 2600. The “Degree of improvement (vs. comparative compound)” value (HIP-009 cells) was 20 and the IC50 (HIP-009 cells) was 160 nM.
`CCC(=O)N1c2ccccc2[C@H](Nc2ccc(NC(=O)CNC(=O)Nc3ccc(OCCN4CCN(C(C)=O)C[C@@H]4C)cc3)cc2)C[C@@H]1C` was tested, and the IC50 (SU-DHL-4 cells [2]) was 0.081 nM, the Nerve selectivity (HIP-009 cells) was 6900 and the “Degree of improvement (vs. comparative compound)” value (HIP-009 cells) was 53. The IC50 (HIP-009 cells) was 560 nM.
For `CCC(=O)N1c2ccccc2[C@H](Nc2ccc(NC(=O)CNC(=O)Nc3ccc(NC(=O)CN4CCN(C)C(=O)[C@H]4C)cc3F)cc2)C[C@@H]1C`, the IC50 (SU-DHL-4 cells [2]) was 0.14 nM, the Nerve selectivity (HIP-009 cells) was 540 and the “Degree of improvement (vs. comparative compound)” value (HIP-009 cells) was “④ 12”. It also gave an IC50 (HIP-009 cells) of 77 nM.
`CCC(=O)N1c2ccccc2[C@H](Nc2ccc(NC(=O)CNC(=O)Nc3ccc(OCCN4C[C@H]5C[C@@H]4CN5C(C)=O)cc3)cc2)C[C@@H]1C` was tested, and the IC50 (SU-DHL-4 cells [2]) was 0.27 nM, the Nerve selectivity (HIP-009 cells) was 2600 and the “Degree of improvement (vs. comparative compound)” value (HIP-009 cells) was 20. The IC50 (HIP-009 cells) was 720 nM.
In the case of `CCC(=O)N1c2ccccc2[C@H](Nc2ccc(NC(=O)CNC(=O)Nc3ccc(NC(=O)CN4CCN(C)C(=O)[C@H]4C)cc3)cc2)C[C@@H]1C`, the IC50 (SU-DHL-4 cells [2]) is reported as 0.3 nM, the Nerve selectivity (HIP-009 cells) is reported as 1100 and the IC50 (HIP-009 cells) is reported as 340 nM.
With `CCC(=O)N1c2ccccc2[C@H](Nc2ccc(NC(=O)CNC(=O)Nc3ccc(N[C@@H]4C[C@H](C)N(C(=O)CC)c5ccccc54)cc3)cc2)C[C@@H]1C` the IC50 (SU-DHL-4 cells [2]) was 0.098 nM, the Nerve selectivity (HIP-009 cells) was 130 and the IC50 (HIP-009 cells) was 13 nM.
`CCC(=O)N1c2ccccc2[C@H](Nc2ccc(NC(=O)CNC(=O)Nc3ccc(OCCN4CCC(=O)N(C)CC4)cc3F)cc2)C[C@@H]1C` gave an IC50 (SU-DHL-4 cells [2]) of 0.031 nM, a Nerve selectivity (HIP-009 cells) of 1500 and an IC50 (HIP-009 cells) of 47 nM.
`CCC(=O)N1c2ccccc2[C@H](Nc2ccc(NC(=O)CNC(=O)Nc3ccc(OCCN4CCN(C(C)=O)[C@H](C)C4)cc3)cc2)C[C@@H]1C` was tested, and the IC50 (SU-DHL-4 cells [2]) was 0.14 nM, the Nerve selectivity (HIP-009 cells) was 3900 and the “Degree of improvement (vs. comparative compound)” value (HIP-009 cells) was 30. For the same compound, the IC50 (HIP-009 cells) was 520 nM.
In the case of `CCC(=O)N1CCN(CCOc2ccc(NC(=O)NCC(=O)Nc3ccc(N[C@@H]4C[C@H](C)N(C(=O)CC)c5ccccc54)cc3)cc2)CC1`, the IC50 (SU-DHL-4 cells [2]) is reported as 0.2 nM, the Nerve selectivity (HIP-009 cells) is reported as 4300 and the “Degree of improvement (vs. comparative compound)” value (HIP-009 cells) is reported as 33. The IC50 (HIP-009 cells) was 850 nM.
With `CCC(=O)N1c2ccccc2[C@H](Nc2ccc(NC(=O)CNC(=O)Nc3ccc(OCCN4CCN(C(C)=O)C[C@@H]4C)cc3F)cc2)C[C@@H]1C` the IC50 (SU-DHL-4 cells [2]) was 0.068 nM, the Nerve selectivity (HIP-009 cells) was 1700 and the IC50 (HIP-009 cells) was 120 nM.
Work on `CCC(=O)N1c2ccccc2[C@H](Nc2ccc(NC(=O)CNC(=O)Nc3ccc(OCCc4cccc(C(=O)N(C)C)c4)cc3)cc2)C[C@@H]1C` yielded an IC50 (SU-DHL-4 cells [2]) of 0.33 nM, a Nerve selectivity (HIP-009 cells) of 1100 and an IC50 (HIP-009 cells) of 350 nM.
Work on `CCC(=O)N1c2ccccc2[C@H](Nc2ccc(NC(=O)CNC(=O)Nc3ccc(OCCN4C[C@H](C)N(C(C)=O)[C@@H](C)C4)cc3)cc2)C[C@@H]1C` yielded an IC50 (SU-DHL-4 cells [2]) of 0.4 nM, a Nerve selectivity (HIP-009 cells) of 2300 and an IC50 (HIP-009 cells) of 910 nM.
